Experimental data published in patent US6989399B2, “Antiamyloid phenylsulfonamides: N-alkanol derivatives” (Bristol-Myers Squibb Company, priority 2002, dated 2006).

Biological target: γ-secretase (Homo sapiens, UniProt P49768)
Assay: Isolated membrane γ-secretase assay, time-resolved fluorescence detection of Aβ
Settings: read-out: Activity (IC50), Inhibition of β-Amyloid Peptide; isolated membranes, about 90 minutes at 37 degrees C
Excerpt: The detection of γ-secretase activity requires assays capable of reliable, accurate and expedient detection of γ-secretase cleavage products, particularly Aβ. An isolated membrane fraction that contains functionally active γ-secretase and β-APP substrates can generate γ-secretase cleavage products including Aβ (Roberts et al., WO 01/75435; Fechteler et al., Patent Application No. DE 99-19941039 19990828; Shearman et al., Biochemistry, 39, p. 8698–8704 (2000); Zhang et al., Biochemistry, 40, p. 5049-5055 (2001)). […] 325–327 (1992), or by a preferred method using time-resolved fluorescence of the homogeneous sample containing membranes and Aβ (Roberts et al., WO 01/75435; Shearman et al., Biochemistry, 39, p. 8698–8704 (2000)). The Aβ present in a homogeneous sample containing membranes can be detected by time-resolved fluorescence with two antibodies that recognize different epitopes of Aβ. […] A lack of fluorescence is indicative of the absence of cleavage products, resulting from inhibition of γ-secretase. […]
A typical membrane-based assay requires 45 μg membrane protein per well in a 96- or 384-well format. […] Incubation of the membranes with the test agent will continue for approximately 90 minutes at which time fluorescence labeled antibodies are added to each well for Aβ quantitation. […]

IC50: < 50 nM
Compound: C#CCC(O)[C@@H](C)N(c1cc(Cl)ccc1Cl)S(=O)(=O)c1ccc(Cl)cc1 (single isomer, unassigned)
